The values below come from ChEMBL document CHEMBL2021790, “Pyridone methylsulfone hydroxamate LpxC inhibitors for the treatment of serious gram-negative infections” (J Med Chem, 2012).

The assay concerns the target T1, UDP-3-O-acyl-N-acetylglucosamine deacetylase (Pseudomonas aeruginosa (strain ATCC 15692 / PAO1 / 1C / PRS 101 / LMG12228), UniProt P47205).
T1 sequence (P47205 whole entry): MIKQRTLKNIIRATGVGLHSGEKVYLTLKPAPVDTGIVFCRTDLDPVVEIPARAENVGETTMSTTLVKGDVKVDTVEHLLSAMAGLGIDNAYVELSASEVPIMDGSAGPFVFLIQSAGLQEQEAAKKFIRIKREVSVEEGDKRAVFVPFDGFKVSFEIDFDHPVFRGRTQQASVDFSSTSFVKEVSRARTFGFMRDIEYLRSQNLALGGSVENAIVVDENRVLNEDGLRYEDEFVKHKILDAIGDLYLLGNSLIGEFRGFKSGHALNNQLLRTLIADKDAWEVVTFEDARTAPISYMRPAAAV
Briefly: Inhibition of Pseudomonas aeruginosa LpxC expressed in Escherichia coli using UDP-3-O-N-acetylglucosamine substrate measured after 30 mins by mass spectrometry.

A word on the IC50: it is the concentration at which inhibition is half-maximal. A higher IC50 goes with a need for much substance.

The structures appear in SMILES notation.

`COc1ccc(-c2ccn(CC[C@](C)(C(=O)NO)S(C)(=O)=O)c(=O)c2)cc1` showed an IC50 of 2.6 nM.
